Measured values published in patent publication US6521659B2, “Compositions containing a substituted indolealkanoic acid and an angiotensin converting enzyme inhibitor” (Institute for Pharmaceutical Discovery, LLC, priority 2000, dated 2003).

Assays:
[1] = target: T1, human aldehyde reductase (hALR1) (Homo sapiens, UniProt P14550); assay: Inhibition of human aldehyde reductase (hALR1), methods of Ishii et al.; type: biochemical
T1 sequence (P14550 1-325): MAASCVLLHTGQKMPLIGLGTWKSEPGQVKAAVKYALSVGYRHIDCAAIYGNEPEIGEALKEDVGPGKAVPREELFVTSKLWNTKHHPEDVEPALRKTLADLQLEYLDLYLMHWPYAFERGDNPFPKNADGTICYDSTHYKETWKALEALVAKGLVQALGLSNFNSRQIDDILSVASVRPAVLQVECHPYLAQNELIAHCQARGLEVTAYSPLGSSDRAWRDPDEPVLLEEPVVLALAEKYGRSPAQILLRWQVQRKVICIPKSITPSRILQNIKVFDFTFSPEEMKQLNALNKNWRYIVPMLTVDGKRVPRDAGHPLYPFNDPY
Protocol: In a second assay, a number of the same compounds were tested for their ability to inhibit aldehyde reductase (hALR1), a structurally related enzyme.
(§1) Since high potency of test compounds as inhibitors of aldose reductase is desirable, low hALR2 IC50 values are sought. On the other hand, high potency of test compounds as inhibitors of aldehyde reductase is undesirable, and high ALR1 IC50s values are sought. Accordingly, the hALR1/hALR2 ratio is used to determine the selectivity of the test compounds.

[2] = target: human aldose reductase (hALR2) (Homo sapiens, UniProt P15121); assay: Inhibition of human aldose reductase (hALR2), methods similar to Butera et al.; type: biochemical; settings: ratio of hALR1 IC50 to hALR2 IC50 (selectivity)
Protocol: Representative compounds of Formula Iwere tested for their potency, selectivity and efficacy as inhibitors of human aldose reductase.
as §1, with “compounds. The importance of this selectivity is Described in Kotani, et al., J. Med. Chem. 40: 684, 1997.” for “compounds.”

SMILES | IC50 [1] | HALR1/hALR2 [2]
O=C(O)Cn1cc(Cc2nc3c(F)c(F)cc(F)c3s2)c2c(Cl)cccc21 [Example 29, 4-Chloro-3-(4,5,7-trifluorobenzothiazol-2yl) methyl-indole-N-acetic Acid] | 14 µM | 
O=C(O)Cn1cc(Cc2nc3c(F)c(F)cc(F)c3s2)c2cc(Cl)ccc21 [Example 2, 5-chloro-3-(4,5,7-Trifluorobenzothiazol-2-yl)methyl-indole-N-acetic Acid] | 11 µM | 1,100
O=C(O)Cn1cc(Cc2nc3c(F)c(F)cc(F)c3s2)c2cc(N3CCOCC3)ccc21 [Example 17, 5-morpholino-3-(4,5.7-trifluorobenzothiazol-2-yl)methyl-indole-N-acetic Acid] | 41 µM | 5,100
CC(C(=O)O)n1cc(Cc2nc3c(F)c(F)cc(F)c3s2)c2ccccc21 (stereo not drawn) [Example 25, 3-(4.5,7-trifluorobenzothiazol-2-yl)methyl-indole-N-2-propionic Acid] | 6.5 µM | 41
O=C(O)Cn1cc(Cc2nc3c(F)c(F)cc(F)c3s2)c2cccc(Br)c21 [Example 21, 7-bromo-3-(4,5,7-trifluorobenzothiazol-2-yl)methyl-indole-N-acetic Acid] | 18 µM | 1,300
Cc1c(Cc2nc3c(F)c(F)cc(F)c3s2)c2ccccc2n1CC(=O)O [Example 1, 2-methyl-3-(4,5,7-trifluorobenzothiazol-2-yl)methyl-indole-N-acetic Acid] | 13 µM | 1,200
O=C(O)Cn1cc(Cc2nc3c(F)c(F)cc(F)c3s2)c2cc(-c3ccccc3)ccc21 [Example 15, 5-phenyl-3-(4,5,7-trifluorobenzothiazol-2-yl)methyl-indole-N-acetic acid] | 10 µM | 190
O=C(O)Cn1cc(Cc2nc3c(F)c(F)cc(F)c3s2)c2ccc(F)cc21 [Example 8, 6-fluoro-3-(4,5,7-trifluorobenzothiazol-2-yl)methyl-indole-N-acetic Acid] | 7.5 µM | 1,100
Cc1ccc2c(Cc3nc4c(F)c(F)cc(F)c4s3)cn(CC(=O)O)c2c1 [Example 10, 6-methyl-3-(4,5,7-trifluorobenzothiazol-2-yl)methyl-indole-N-acetic Acid] | 13 µM | 2,600
O=C(O)CCn1cc(Cc2nc3c(F)c(F)cc(F)c3s2)c2ccccc21 [Example 26, 3-(4-5.7-trifluorobenzothiazol-2-yl)methyl-indole-N-3-propionic Acid] | 88 µM | 5,200
O=C(O)Cn1cc(Cc2nc3c(F)c(F)cc(F)c3s2)c2cc(F)ccc21 [Example 9, 5-fluoro-3-(4,5,7-trifluorobenzothiazol-2-yl)methyl-indole-N-acetic Acid] | 21 µM | 1,900
O=C(O)Cn1cc(Cc2nc3c(F)c(F)cc(F)c3s2)c2cc(OCc3ccccc3)ccc21 [Example 7, 5-benzyloxy-3-(4,5,7-trifluorobenzothiazol-2-yl)methyl-indole-N-acetic Acid] | 4.8 µM | 400
O=C(O)Cn1cc(Cc2nc3c(F)c(F)cc(F)c3s2)c2cccc(Cl)c21 [Example 22, 7-chloro-3-(4,5,7-trifluorobenzothiazol-2-yl)methyl-indole-N-acetic Acid] | 19 µM | 2,100
O=C(O)Cn1cc(Cc2nc3c(F)c(F)cc(F)c3s2)c2cccc(F)c21 [Example 20, 7-fluoro-3-(4,5,7-trifluorobenzothiazol-2-yl)methyl-indole-N-acetic Acid] | 7 µM | 1,000
O=C(O)Cn1cc(Cc2nc3cc(C(F)(F)F)ccc3s2)c2ccccc21 [Example 11, 3-(5-trifluoromethylbenzothiazol-2-yl)methyl-indole-N-acetic Acid] | 5.6 µM | 57
COc1ccc2c(Cc3nc4c(F)c(F)cc(F)c4s3)cn(CC(=O)O)c2c1 [Example 28, 6-Methoxy-3-(4,5,7-trifluorobenzothiazol-2-yl)methyl-indole-N-acetic acid] | 12 µM | 2,400
Cc1ccc2c(c1)c(Cc1nc3c(F)c(F)cc(F)c3s1)cn2CC(=O)O [Example 4, 5-methyl-3-(4,5,7-trifluorobenzothiazol-2-yl)methyl-indole-N-acetic Acid] | 34 µM | 4,250
COc1ccc2c(c1)c(Cc1nc3c(F)c(F)cc(F)c3s1)cn2CC(=O)O [Example 30, 5-Methoxy-3-(4,5,7-trifluorobenzothiazol-2-yl) methyl-indole-N-acetic Acid] | 21 µM | 
O=C(O)Cn1c(-c2ccccc2)c(Cc2nc3c(F)c(F)cc(F)c3s2)c2ccccc21 [Example 14, 2-phenyl-3-(4,5,7-trifluorobenzothiazol-2-yl)methyl-indole-N-acetic Acid] | 16 µM | 160
O=C(O)Cn1cc(Cc2nc3c(F)c(F)cc(F)c3s2)c2ccc(Cl)cc21 [Example 6, 6-chloro-3-(4,5,7-trifluorobenzothiazol-2-yl)methyl-indole-N-acetic Acid] | 2.7 µM | 340
Cc1cccc2c(Cc3nc4c(F)c(F)cc(F)c4s3)cn(CC(=O)O)c12 [Example 5, 7-methyl-3-(4,5,7-trifluorobenzothiazol-2-yl)methyl-indole-N-acetic Acid] | 21 µM | 3,500
O=C(O)Cn1cc(Cc2nc3c(F)c(F)cc(F)c3s2)c2cc(Oc3ccccc3)ccc21 [Example 19, 5-phenoxy-3-(4,5,7-trifluorobenzothiazol-2-yl)methyl-indole-N-acetic Acid] | 11 µM | 370
